Experimental findings from ChEMBL document CHEMBL1124725, “Inhibition of steroid 5 alpha-reductase by unsaturated 3-carboxysteroids” (J Med Chem, 1990) are described below.

pKi: −log10 of the molar value.

The target in the assay is T1, 3-oxo-5-alpha-steroid 4-dehydrogenase 2 (Homo sapiens, UniProt P31213).
T1 sequence (P31213 whole entry): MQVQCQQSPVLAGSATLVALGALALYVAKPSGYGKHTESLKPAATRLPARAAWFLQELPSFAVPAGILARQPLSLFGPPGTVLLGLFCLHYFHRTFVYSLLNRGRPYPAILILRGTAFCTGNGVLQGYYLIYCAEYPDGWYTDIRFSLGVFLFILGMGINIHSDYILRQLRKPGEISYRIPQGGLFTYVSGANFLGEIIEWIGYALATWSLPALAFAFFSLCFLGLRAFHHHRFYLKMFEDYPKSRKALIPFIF
Kind of assay: In vitro inhibition of Steroid 5-alpha-reductase in human prostatic tissue. As to conditions: read-out: Ki app. An outline of the steps: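 Microsomes from surgically derived benign hyperplastic human prostate. Incubation was in 50 mM sodium citrate, pH 5.0, with 400 μM NADPH at 37 °C for 20–30 min, with ≤20% of T consumed. The reaction was quenched with ethyl acetate, and the read-out was total 5α-reduced products (DHT + ADIOL). Ki,app came from Dixon plots, or IC50 if nonlinear; ranges span microsome preparations.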

As a reminder, the pKi is the Ki on a negative log10 scale, so that one unit is a factor of ten. As to `CC1=C2C=C(C(=O)O)CC[C@]2(C)C2CC[C@@]3(C)C(CC[C@@H]3C(=O)N(C(C)C)C(C)C)C2C1` (stereo partly specified), the pKi is 6.77.
